Values of other authors, collected in patent US10537521B2 (priority 2016, dated 2020).

By UniProt entry, the sequences of proteins in these tests, tags left out.
UniProt P35372, whole entry: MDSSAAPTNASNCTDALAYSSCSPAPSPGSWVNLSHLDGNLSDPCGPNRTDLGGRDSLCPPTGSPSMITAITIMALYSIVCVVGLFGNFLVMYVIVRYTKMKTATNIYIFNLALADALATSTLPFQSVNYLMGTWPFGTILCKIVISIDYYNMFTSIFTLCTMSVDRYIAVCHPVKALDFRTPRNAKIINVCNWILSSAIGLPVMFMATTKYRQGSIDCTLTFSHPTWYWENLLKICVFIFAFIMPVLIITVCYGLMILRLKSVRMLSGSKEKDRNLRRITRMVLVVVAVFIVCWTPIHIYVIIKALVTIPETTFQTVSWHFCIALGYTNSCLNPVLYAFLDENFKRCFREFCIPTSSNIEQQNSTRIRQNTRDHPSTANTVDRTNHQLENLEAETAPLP

Molecular target: μ-opioid (Homo sapiens, UniProt P35372)
Settings: cited from earlier work

In the case of (+)-O-desmethyltramadol [(+)-M1], the μ-opioid activity is given as “significant μ-opioid activity”.
